In patent US9023354B2, “Combination therapy with MDM2 and EFGR inhibitors” (priority 2010, dated 2015):
Where two headings read alike, the source gives them in different places.

Sequences of proteins named here, by UniProt entry; tags and fusion partners are left off. Residues count along the entry.
UniProt Q00987, 1-150 limits assumed: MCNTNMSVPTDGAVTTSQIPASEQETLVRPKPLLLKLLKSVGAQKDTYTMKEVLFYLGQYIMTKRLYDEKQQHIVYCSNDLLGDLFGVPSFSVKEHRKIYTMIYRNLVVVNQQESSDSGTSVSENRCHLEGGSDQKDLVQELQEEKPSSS

What was measured:
p53/MDM2 binding = p53/MDM2 binding (Homo sapiens (Human), UniProt Q00987); assay: AlphaScreen measurement of p53/MDM2 interaction (truncated GST-MDM2 aa 1-150)
A431 cells [1] = assay: A431 cell proliferation assay (MTT), alone and in combination with Tarceva; assay type: cell-based; details: for A431 Cell Proliferation CI Value: combination with Tarceva, CI <0.8 indicates synergy, Example 9, Table 7B
A431 cells [2] = assay: Caspase 3/7 activity, measurement of apoptosis; assay type: cell-based; details: 10 μM compared to 10 μM Tarceva
[3] = read-out: Inhibition of p53/MDM2 Binding IC50 Value, Table 9

Structure (SMILES)	IC50 (p53/MDM2 binding; [3]) [µM]	also measured
C=CCOc1cccc(C(Nc2cc(C)ccn2)c2ccc3cccnc3c2O)c1 (centres unmarked)	5.8	
CCOc1ccc(C(Nc2cccnc2)c2cc(Cl)c3cccnc3c2O)cc1 (centres unmarked)	4.6	A431 Cell Proliferation CI Value (A431 cells [1]): 0.65; IC50 (p53/MDM2 binding; read-out: p53/MDM2 IC50 Value, Table 7C): 4.6 µM
COc1ccc(C(Nc2cc(C)ccn2)c2ccc3cccnc3c2O)c(OC)c1OC (centres unmarked)	6.3	
Oc1c(C(Nc2ccccn2)c2ccc(C(F)(F)F)cc2)ccc2cccnc12 (centres unmarked)	6.2	A431 Cell Proliferation CI Value (A431 cells [1]): 0.65; IC50 (A431 cells [1]; read-out: A431 Cell Proliferation (IC50 Value), A431 cells, further studies, Example 9, Table 7A): 1100 nM
Cc1ccc2c(C)nc(Nc3nc(-c4ccccc4C)cc(=O)[nH]3)nc2c1		Caspase 3/7 activity % Increase Relative to Tarceva (A431 cells [2]): 137%

The remaining molecules from weak to strong by IC50 (p53/MDM2 binding; [3]), led by results:

IC50 (p53/MDM2 binding; [3]) [µM]	Structure (SMILES)	also measured
14	C=CCOc1ccc(C(Nc2ccccn2)c2ccc3cccnc3c2O)cc1 (centres unmarked)	
10	Cc1ccc2ccc(C(Nc3ccccn3)c3sccc3C)c(O)c2n1 (centres unmarked)	
9.3	CCN1CCN(C(c2cccnc2)c2ccc3cccnc3c2O)CC1 (centres unmarked)	
5.7	COc1cc(C(Nc2ccccn2)c2cc(Cl)c3cccnc3c2O)cc(I)c1O (centres unmarked)	
3.5	CCOc1ccc(C(Nc2cc(C)ccn2)c2ccc3cccnc3c2O)cc1OC (centres unmarked)	
